In patent US20260224724A1, “GLYCOSYNTHASE VARIANTS FOR ANTIBODY-DRUG CONJUGATE ENGINEERING” (OBI Pharma, Inc., priority 2022, published 2026):

Tested on: SKBR-3
Experiment: ADCC reporter bioassay (luciferase reporter effector cells), SKBR-3 target cells
Type: cell-based
Settings: effector:target 3:1, 6 hours induction
Description: The ADCC activity was analyzed by ADCC reporter bioassay complete kit (Promega, G7015) using luciferase reporter cells. The related cell lines MCF7W (OBI-888), SKBR-3 (Herceptin, Perjeta), BxPC3 (Erbitux) and Raji (Rituxan) were selected for the analysis. Cell lines shared with the same procedures. Target cells were seeded at 96-well cell culture plate and incubated overnight at 37° C. in a humidified 5% CO2 incubator. The culture medium was replaced with serial dilution of homogeneous antibody and the corresponding antibody standard in triplicate. In each well, ADCC bioassay effector cells were added. Ratio of effector cell to target cell was 3:1. We performed induction for 6 hours and then added Bio-Glo luciferase assay buffer. After 15 minutes, luminescence (RLU, relative light unit) was determined using microplate reader (SpectraMax L, Molecular Devices, Sunnyvale, CA). The fold change of luminescence induction was calculated by the ratio of relative light unit (RLU) (induced) to RLU (no antibody control). EC50 was determined by plotting x (concentration in μg/mL)-y (the induction of fold change) and fitting the data in a 4PL nonlinear regression model by PRISM 6 Software. Relative potency was estimated by parallel line analysis using Gen5 Microplate Reader and Imager Software (BioTek Instruments).

| EC50 (ADCC assay) [µg/mL] | Substance |
| --- | --- |
| 5.10 | Herceptin-G2S2: homogeneous Herceptin bearing sialylated complex type N-glycan (G2S2) at Fc N297 |
| 15.29 | Herceptin: commercial anti-HER2 monoclonal antibody (Roche) [reference compound] |
